Results taken from patent US12391679B2, “Benzamide-substituted bicyclic imidazo- and pyrazolo-fused -pyridine, -pyrimide, and -pyridazine compounds for treatment of inflammatory diseases” (ONCO3R Therapeutics BV, priority 2019, dated 2025).

Tested on: LPS triggered IL-10 secretion in monocytes
Assay: Monocytes assay: LPS-triggered IL-10 (ELISA)
Conditions: LPS-triggered IL-10 induction, median maximal fold change vs LPS only

## COc1cc(-c2cnn3cc(C(C)(C)C#N)ccc23)cc(OC(F)F)c1C(=O)N[C@@H]1C[C@H]1F (relative stereo)
  IL-10 FCmax median: + (+ ≤1.5)
